Experimental findings from patent publication US7592188B2, “Live cell biosensors” (The Scripps Research Institute, priority 2004, dated 2009) are described below.

A short description of the series: Photophysical properties of dyes in various solvents (absorbance, emission, quantum yield). The class given is physicochemical. Conditions: reactive forms. The procedure: Analytical grade reagents were purchased from major suppliers. […] Emission and excitation spectra were obtained using a Spex Fluorolog 2 spectrofluorometer at 23° C. […] Demas et al., J. Phys. […] All operations with dyes were performed under dim light. Flasks containing dyes were wrapped with aluminum foil.

In the case of “Sodium 3-[(2E)-6-[({2-[(2,5-Dioxopyrrolidin-1-yl)oxy]-2-oxoethoxy}-acetyl)methylaminol]-2-[(2E,4Z)-4-(1,1-dioxido-3-oxo-1-benzothien-2(3H)-ylidene)but-2-enylidene]-1,3-benzothiazol-3(2H)-yl]propane-1-sulfonate [dye 2f]”, the “ε × Φ” value (solvent BuOH) is reported as 28000 and the “ε × Φ” value (solvent MeOH) amounted to 9000.
